Where two headings read alike, the source gives them in different places.
Tests used:
[1] = tested on: ES-2 human ovarian cancer cells; experiment: pH-dependent anti-proliferation assay (MTS; alamar Blue for FIG. 7I); conditions: for Cell Viability Average (Avg): FIG. 7A, ES-2, 6 hr
From the text: pH-dependent anti-proliferation assays with cells.
NaOH to adjust the pH to 9.9.

[2] = for release of drug (doxorubicin) / Mol. % of DMA 8 / Mol. % of DMI 7 formed / Mol. % of Decomposition Products / Mol. % of Dox Released: 37° C.

Doxorubicin Disubstituted Maleamic Acid Glutathione Conjugate [Dox-DMA-GSH 8]
Cell Viability Average (Avg) ([1]; 0.5 μM, pH 6.6-6.8): 64% | Cell Viability Average (Avg) ([1]; 0.5 μM, pH 7.2-7.5): 61% | Cell Viability Average (Avg) ([1]; 1 μM, pH 6.6-6.8): 22% | Cell Viability Average (Avg) ([1]; 1 μM, pH 7.2-7.5): 45% | Cell Viability Avg ([1]; FIG. 7E, ES2, 2.5 hr, 2 μM, pH 6.3-6.4): 43% | Cell Viability Avg ([1]; FIG. 7E, ES2, 2.5 hr, 2 μM, pH 6.5): 50% | Cell Viability Avg ([1]; FIG. 7E, ES2, 2.5 hr, 2 μM, pH 6.7-6.8): 51% | Cell Viability Avg ([1]; FIG. 7E, ES2, 2.5 hr, 2 μM, pH 6.8-6.9): 63% | Cell Viability Avg ([1]; FIG. 7E, ES2, 2.5 hr, 2 μM, pH 7.2): 69% | Cell Viability Avg ([1]; FIG. 7E, ES2, 2.5 hr, 2 μM, pH 7.2-7.4): 80% | Cell Viability Avg ([1]; FIG. 7I, ES2, FBS(50%), 2 μM, pH 6.5-6.9): 50% | Cell Viability Avg ([1]; FIG. 7I, ES2, FBS(50%), 2 μM, pH 7.2-7.7): 89% | Cell Viability Avg ([1]; FIG. 7I, ES2, FBS(50%), 4 μM, pH 6.5-6.9): 19% | Cell Viability Avg ([1]; FIG. 7I, ES2, FBS(50%), 4 μM, pH 7.2-7.7): 46% | Cell Viability Avg ([1]; FIG. 7I, ES2, FBS(50%), 6 μM, pH 6.5-6.9): 8% | Cell Viability Avg ([1]; FIG. 7I, ES2, FBS(50%), 6 μM, pH 7.2-7.7): 21% | Cell Viability Avg ([1]; FIG. 7I, ES2, no FBS, 2 μM, pH 6.5-6.9): 58% | Cell Viability Avg ([1]; FIG. 7I, ES2, no FBS, 2 μM, pH 7.2-7.7): 86% | Cell Viability Avg ([1]; FIG. 7I, ES2, no FBS, 4 μM, pH 6.5-6.9): 21% | Cell Viability Avg ([1]; FIG. 7I, ES2, no FBS, 4 μM, pH 7.2-7.7): 32% | Cell Viability Avg ([1]; FIG. 7I, ES2, no FBS, 6 μM, pH 6.5-6.9): 7% | Cell Viability Avg ([1]; FIG. 7I, ES2, no FBS, 6 μM, pH 7.2-7.7): 17% | Cell Viability Avg ([1]; FIG. 10B, ES2, 12 hr, 0.3 μM, pH 6.6-6.7): 100% | Cell Viability Avg ([1]; FIG. 10B, ES2, 12 hr, 0.3 μM, pH 7.4-7.6): 73% | Cell Viability Avg ([1]; FIG. 10B, ES2, 12 hr, 1 μM, pH 6.6-6.7): 50% | Cell Viability Avg ([1]; FIG. 10B, ES2, 12 hr, 1 μM, pH 7.4-7.6): 23% | pH 6.5/7.4 ratio of Dox release ([2]; 37 C, aq. buffer): 3-4 fold | release of drug (doxorubicin) ([2]; 3 hr, pH 7.4 (FIG. 6)): 10-20% | release of drug (doxorubicin) ([2]; 3 hrs, pH 6.5 (FIG. 6)): 60-70% | Mol. % of DMA 8 ([2]; pH 6.5, 0 hr): 94 Mol. % | Mol. % of DMI 7 formed ([2]; pH 6.5, 0 hr): 6 Mol. % | Mol. % of Decomposition Products ([2]; pH 6.5, 0 hr): 0 Mol. % | Mol. % of Dox Released ([2]; pH 6.5, 0 hr): 0 Mol. % | Mol. % of DMA 8 ([2]; pH 6.5, 1 hr): 56 Mol. % | Mol. % of DMI 7 formed ([2]; pH 6.5, 1 hr): 8 Mol. % | Mol. % of Decomposition Products ([2]; pH 6.5, 1 hr): 1 Mol. % | Mol. % of Dox Released ([2]; pH 6.5, 1 hr): 35 Mol. % | Mol. % of DMA 8 ([2]; pH 6.5, 3 hr): 20 Mol. % | Mol. % of DMI 7 formed ([2]; pH 6.5, 3 hr): 10 Mol. % | Mol. % of Decomposition Products ([2]; pH 6.5, 3 hr): 1 Mol. % | Mol. % of Dox Released ([2]; pH 6.5, 3 hr): 69 Mol. % | Mol. % of DMA 8 ([2]; pH 6.5, 4 hr): 16 Mol. % | Mol. % of DMI 7 formed ([2]; pH 6.5, 4 hr): 10 Mol. % | Mol. % of Decomposition Products ([2]; pH 6.5, 4 hr): 1 Mol. % | Mol. % of Dox Released ([2]; pH 6.5, 4 hr): 73 Mol. % | Mol. % of DMA 8 ([2]; pH 6.5, 5 hr): 13 Mol. % | Mol. % of DMI 7 formed ([2]; pH 6.5, 5 hr): 12 Mol. % | Mol. % of Decomposition Products ([2]; pH 6.5, 5 hr): 1 Mol. % | Mol. % of Dox Released ([2]; pH 6.5, 5 hr): 74 Mol. % | Mol. % of DMA 8 ([2]; pH 6.5, 6.5 hr): 6 Mol. % | Mol. % of DMI 7 formed ([2]; pH 6.5, 6.5 hr): 12 Mol. % | Mol. % of Decomposition Products ([2]; pH 6.5, 6.5 hr): 6 Mol. % | Mol. % of Dox Released ([2]; pH 6.5, 6.5 hr): 76 Mol. % | Mol. % of DMA 8 ([2]; pH 6.5, 8 hr): 2 Mol. % | Mol. % of DMI 7 formed ([2]; pH 6.5, 8 hr): 12 Mol. % | Mol. % of Decomposition Products ([2]; pH 6.5, 8 hr): 8 Mol. % | Mol. % of Dox Released ([2]; pH 6.5, 8 hr): 78 Mol. % | Mol. % of DMA 8 ([2]; pH 6.5, 9 hr): 2 Mol. % | Mol. % of DMI 7 formed ([2]; pH 6.5, 9 hr): 16 Mol. % | Mol. % of Decomposition Products ([2]; pH 6.5, 9 hr): 8 Mol. % | Mol. % of Dox Released ([2]; pH 6.5, 9 hr): 74 Mol. % | Mol. % of DMA 8 ([2]; pH 6.5, 12 hr): 1 Mol. % | Mol. % of DMI 7 formed ([2]; pH 6.5, 12 hr): 16 Mol. % | Mol. % of Decomposition Products ([2]; pH 6.5, 12 hr): 10 Mol. % | Mol. % of Dox Released ([2]; pH 6.5, 12 hr): 73 Mol. % | Mol. % of DMA 8 ([2]; pH 7.4, 0 hr): 73 Mol. % | Mol. % of DMI 7 formed ([2]; pH 7.4, 0 hr): 10 Mol. % | Mol. % of Decomposition Products ([2]; pH 7.4, 0 hr): 17 Mol. % | Mol. % of Dox Released ([2]; pH 7.4, 0 hr): 0 Mol. % | Mol. % of DMA 8 ([2]; pH 7.4, 2 hr): 53 Mol. % | Mol. % of DMI 7 formed ([2]; pH 7.4, 2 hr): 17 Mol. % | Mol. % of Decomposition Products ([2]; pH 7.4, 2 hr): 20 Mol. % | Mol. % of Dox Released ([2]; pH 7.4, 2 hr): 10 Mol. % | Mol. % of DMA 8 ([2]; pH 7.4, 5 hr): 23 Mol. % | Mol. % of DMI 7 formed ([2]; pH 7.4, 5 hr): 24 Mol. % | Mol. % of Decomposition Products ([2]; pH 7.4, 5 hr): 20 Mol. % | Mol. % of Dox Released ([2]; pH 7.4, 5 hr): 33 Mol. % | Mol. % of DMA 8 ([2]; pH 7.4, 9 hr): 19 Mol. % | Mol. % of DMI 7 formed ([2]; pH 7.4, 9 hr): 26 Mol. % | Mol. % of Decomposition Products ([2]; pH 7.4, 9 hr): 22 Mol. % | Mol. % of Dox Released ([2]; pH 7.4, 9 hr): 33 Mol. % | Mol. % of DMA 8 ([2]; pH 7.4, 12 hr): 18 Mol. % | Mol. % of DMI 7 formed ([2]; pH 7.4, 12 hr): 26 Mol. % | Mol. % of Decomposition Products ([2]; pH 7.4, 12 hr): 22 Mol. % | Mol. % of Dox Released ([2]; pH 7.4, 12 hr): 34 Mol. % | Mol. % of DMA 8 ([2]; pH 7.4, 16 hr): 14 Mol. % | Mol. % of DMI 7 formed ([2]; pH 7.4, 16 hr): 27 Mol. % | Mol. % of Decomposition Products ([2]; pH 7.4, 16 hr): 25 Mol. % | Mol. % of Dox Released ([2]; pH 7.4, 16 hr): 34 Mol. % | Mol. % of DMA 8 ([2]; pH 7.4, 20 hr): 12 Mol. % | Mol. % of DMI 7 formed ([2]; pH 7.4, 20 hr): 27 Mol. % | Mol. % of Decomposition Products ([2]; pH 7.4, 20 hr): 25 Mol. % | Mol. % of Dox Released ([2]; pH 7.4, 20 hr): 36 Mol. % | Mol. % of DMA 8 ([2]; pH 7.4, 24 hr): 12 Mol. % | Mol. % of DMI 7 formed ([2]; pH 7.4, 24 hr): 24 Mol. % | Mol. % of Decomposition Products ([2]; pH 7.4, 24 hr): 28 Mol. % | Mol. % of Dox Released ([2]; pH 7.4, 24 hr): 36 Mol. % | Mol. % of DMA 8 ([2]; pH 7.4, 48 hr): 8 Mol. % | Mol. % of DMI 7 formed ([2]; pH 7.4, 48 hr): 18 Mol. % | Mol. % of Decomposition Products ([2]; pH 7.4, 48 hr): 45 Mol. % | Mol. % of Dox Released ([2]; pH 7.4, 48 hr): 29 Mol. % | Mol. % of DMA 8 ([2]; pH 7.4, 81 hr): 1 Mol. % | Mol. % of DMI 7 formed ([2]; pH 7.4, 81 hr): 11 Mol. % | Mol. % of Decomposition Products ([2]; pH 7.4, 81 hr): 60 Mol. % | Mol. % of Dox Released ([2]; pH 7.4, 81 hr): 28 Mol. %
